Publication PMC4568520, “Interrogation of the intersubunit interface of the open Hv1 proton channel with a probe of allosteric coupling” (Scientific Reports, 2015)
Positions count from the first letter of the chain named.

Experiments:
Test in all cases: cell-based
Design in all cases: species or system Xenopus oocytes; patch-clamp proton currents, Hill fit of current inhibition, +120 mV, pHi = pHo = 6.0
D112E I127C-C = molecular target: T1, D112E I127C-C (Homo sapiens, UniProt Q96D96, D112E/I127C); settings: crosslinked, no βME; apparent Kd, Hill fit of current inhibition; read-out: Kd (µM) (±SE)
T1 construct: gene HVCN1; Hv1 homodimer, intersubunit cysteine crosslink (no βME)
T1 sequence (Q96D96 1-273 D112E/I127C): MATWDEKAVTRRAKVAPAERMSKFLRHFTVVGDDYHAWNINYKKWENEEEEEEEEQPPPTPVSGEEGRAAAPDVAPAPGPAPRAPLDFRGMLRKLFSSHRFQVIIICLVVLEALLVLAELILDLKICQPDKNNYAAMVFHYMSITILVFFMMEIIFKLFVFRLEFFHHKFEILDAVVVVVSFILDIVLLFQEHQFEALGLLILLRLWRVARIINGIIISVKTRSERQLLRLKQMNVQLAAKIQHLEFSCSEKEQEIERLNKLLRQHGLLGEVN
Excerpt: (§1) Figure 1 Hv1 inhibition by guanidinothiazole derivatives. (a) Tested compounds: [1] reference Hv1 inhibitor 2-guanidino-benzimidazole (2GBI). 2-guanidino-benzothiazole (GBTA), [3] (5-trifluoromethyl-1,3-benzothiazol-2-yl)guanidine, [4] naphtho[1,2-d][1,3]thiazol-2-yl-guanidine, [5] (4-methyl-1,3-thiazol-2-yl)guanidine, [6] (5-bromo-4-methyl-1,3-thiazol-2-yl)guanidine, [7] famotidine, [8] ethyl 2-guanidino-5-methyl-1,3-thiazole-4-carboxylate, [9] ethyl 2-guanidino-4-methyl-1,3-thiazole-5-carboxylate, [10] ethyl (2-guanidino-4-methyl-1,3-thiazol-5-yl)acetate, [11] 1-[4-(4-chlorophenyl)-1,3-thiazol-2-yl]guanidine, [12] 1-[4-(3,4-dimethoxyphenyl)-1,3-thiazol-2-yl]guanidine. (b) Inhibition of human Hv1 activity by the indicated guanidinothiazoles and reference compound 2GBI (teal column). Hv1 proton currents were measured in inside out patches from Xenopus oocytes in response to depolarizations to +120 mV from a holding potential of −80 mV. Each inhibitor was added to the bath solution at a concentration of 200 μM. pHi = pHo = 6.0. Data are means ± S.E.M. (n ≥ 4). (c) Concentration dependences of inhibition of human Hv1 by compounds [2], [3], [6], and [11]. Each point represents the average inhibition from 3 to 15 measurements ± S.D. Curve lines are Hill fits used to obtain the apparent Kd values reported in Supplementary Table 1. Hill coefficients were determined from fits reported in Supplementary Fig. 1: h(1) = 0.975 ± 0.024 h(2) = 1.306 ± 0.033, h(3) = 1.25 ± 0.07, h(6) = 1.109 ± 0.040, h(11) = 1.179 ± 0.036 (see methods). Apparent dissociation constants (Kd) for the different combinations of channel and inhibitor (Supplementary Table 1) were determined by fitting the concentration dependences of inhibition (average %inhib values) with the Hill equation:  Figure 6 Open-state coupling is mediated by direct physical interaction between outer ends of S1 segments in the two subunits. (a) Schematics of mutant Hv1 dimers and linked dimers designed to study how intersubunit cysteine crosslinking affects GBTA binding cooperativity. (b–d) Concentration dependences of inhibition of the indicated constructs by 2GBI (b,d) and GBTA (c,e) in the presence or absence of 10 mM βME in the extracellular solution. Each point represents the average inhibition from 3 to 10 measurements ± S.D. Curve lines are Hill fits used to obtain Kd values (see Supplementary Table 1). Hill coefficients in inset histograms were determined from fits reported in Supplementary Figs 3 and 4. Asterisks in (c,e), indicate statistically significant differences between different conditions of GBTA inhibition (p < 0.0001, see methods). Corresponding differences for 2GBI inhibition [(b,d)] were not statistically significant (p > 0.05).

[1] = molecular target: T2, human Hv1 (wild type, dimeric) K125A (Homo sapiens, UniProt Q96D96, K125A); settings: apparent Kd, Hill fit of current inhibition; read-out: Kd (µM) (±SE)
T2 construct: gene HVCN1; full-length human Hv1 homodimer, 273 residues; pGEMHE cRNA in Xenopus laevis oocytes, inside-out patches
T2 sequence (Q96D96 1-273 K125A): T1 sequence (Q96D96 1-273 D112E/I127C) with E112D, K125A, C127I
Excerpt: as §1

[2] = molecular target: T3, S181A Hv1NCCiVSP (monomer) (Homo sapiens, UniProt Q96D96, S181A); settings: apparent Kd, Hill fit of current inhibition; read-out: Kd (µM) (±SE)
T3 construct: gene HVCN1; monomeric chimera: CiVSP 1-113 + Hv1 97-227 + CiVSP 240-576, as T7, with S181A
T3 sequence (Q96D96 1-273 S181A): T1 sequence (Q96D96 1-273 D112E/I127C) with E112D, C127I, S181A
Excerpt: as §1

[3] = molecular target: T4, human Hv1 (wild type, dimeric) D123A (Homo sapiens, UniProt Q96D96, D123A); settings: apparent Kd, Hill fit of current inhibition; read-out: Kd (µM) (±SE)
T4 construct: gene HVCN1; full-length human Hv1 homodimer, 273 residues; pGEMHE cRNA in Xenopus laevis oocytes, inside-out patches
T4 sequence (Q96D96 1-273 D123A): T1 sequence (Q96D96 1-273 D112E/I127C) with E112D, D123A, C127I
Excerpt: as §1

I127C+βME = molecular target: T5, I127C+βME (Homo sapiens, UniProt Q96D96, I127C); settings: 10 mM βME; apparent Kd, Hill fit of current inhibition; read-out: Kd (µM) (±SE)
T5 construct: gene HVCN1; Hv1 homodimer, cysteines reduced by 10 mM βME
T5 sequence (Q96D96 1-273 I127C): T1 sequence (Q96D96 1-273 D112E/I127C) with E112D
Excerpt: as §1

[4] = molecular target: T6, human Hv1 (wild type, dimeric) D123R (Homo sapiens, UniProt Q96D96, D123R); settings: apparent Kd, Hill fit of current inhibition; read-out: Kd (µM) (±SE)
T6 construct: gene HVCN1; full-length human Hv1 homodimer, 273 residues; pGEMHE cRNA in Xenopus laevis oocytes, inside-out patches
T6 sequence (Q96D96 1-273 D123R): T1 sequence (Q96D96 1-273 D112E/I127C) with E112D, D123R, C127I
Excerpt: as §1

[5] = molecular target: T7, human Hv1 (wild type, dimeric) E119A (Homo sapiens, UniProt Q96D96, E119A); settings: apparent Kd, Hill fit of current inhibition; read-out: Kd (µM) (±SE)
T7 construct: gene HVCN1; full-length human Hv1 homodimer, 273 residues; pGEMHE cRNA in Xenopus laevis oocytes, inside-out patches
T7 sequence (Q96D96 1-273 E119A): T1 sequence (Q96D96 1-273 D112E/I127C) with E112D, E119A, C127I
Excerpt: as §1

D112E I127C+βME = molecular target: T8, D112E I127C+βME (Homo sapiens, UniProt Q96D96, D112E/I127C); settings: 10 mM βME; apparent Kd, Hill fit of current inhibition; read-out: Kd (µM) (±SE)
T8 construct: gene HVCN1; Hv1 homodimer, cysteines reduced by 10 mM βME
T8 sequence (Q96D96 1-273 D112E/I127C): T1 sequence (Q96D96 1-273 D112E/I127C)
Excerpt: as §1

Which Kd (D112E I127C-C) does the source give for `N=C(N)Nc1nc2ccccc2[nH]1` [compound 1, 2-Guanidino-benzimidazole] here?
Its Kd is 168 ± 9 µM.

What about the Kd [1] of the same molecule?
Its Kd is 29.4 ± 1.7 µM.

And the Kd [2]?
Its Kd is 125 ± 6 µM.

What about the Kd [3] of the same molecule?
The Kd was 35.3 ± 3.5 µM.

What about the Kd (I127C+βME) of the same molecule?
Its Kd is 47.6 ± 3.5 µM.

What about the Kd [4] of the same molecule?
The Kd was 71.5 ± 4.1 µM.

And the Kd [5]?
Its Kd is 34.4 ± 2.9 µM.

What about the Kd (D112E I127C+βME) of the same molecule?
Its Kd is 206 ± 13 µM.
